Our source for the Activity values is ChEMBL document CHEMBL3244191, “Study of the structural requirements for dopa potentiation and oxotremorine antagonism by L-prolyl-L-leucylglycinamide” (J Med Chem, 1978).

Molecules are shown by their SMILES. Active and inactive are the calls of the source. No cut-off for these calls is given here.

Test [1] relates to Mus musculus. Briefly: Potentiation of dl-DOPA-induced behavioral effects in ICR mouse assessed as slight piloerection, slight salivation and slight increased motor activity at 10 mg/kg, ip administered 1 hr prior to dl-DOPA-challenge measured for 1 hr. The test is classed as functional, organism-based. Set-up: dose 10 mg/kg.
Test [2] has as its system Mus musculus. Briefly: Suppression of oxotremorine-induced tremor in ICR mouse at 20 mg/kg, ip pretreated for 1 hr followed by oxotremorine-challenge. It counts as functional, organism-based. Set-up: dose 20 mg/kg.

As for `CC(C)C[C@H](NC(=O)[C@@H]1CCCN1)C(=O)NCC(=O)O`, the result in test [1] was Active. Further, the outcome in test [2] was inactive.
